{"source": "paper PMC7672622", "about": "“Interaction of Cucurbit[7]uril with Oxime K027, Atropine, and Paraoxon: Risky or Advantageous Delivery System?” (2020)", "key": {"[1]": {"assay": "pharmacokinetic study of atropine, plasma and brain, LC-HRMS", "conditions": "atropine 10 mg/kg i.m., mean ± SEM, n = 3"}, "paraoxon-poisoned mice": {"test_system": "paraoxon-poisoned mice", "assay": "functional observatory battery (FOB) and survival", "conditions": "K027 and K027@CB[7] given with atropine"}}}
{"molecule": "CN1[C@@H]2CC[C@H]1C[C@@H](OC(=O)C(CO)c1ccccc1)C2", "note": "(stereo partly drawn)", "values": [{"measurement": "λz", "setting": "[1]; brain", "result": "0.007 ± 0.001", "unit": "L/min"}, {"measurement": "λz", "setting": "[1]; plasma", "result": "0.024 ± 0.01", "unit": "L/min"}, {"measurement": "survival until the end of the experiment (24 h)", "setting": "paraoxon-poisoned mice", "result": "survived"}]}
